In the library only some 2.3% were active in any assay of this set; here they are far more common.
Mito fusion yeast = blocks mitochondrial division or promotes mitochondrial fusion; S. cerevisiae fusion-defective mutant growth rescue, CellTiterGlo 48 h; Potency, µM (doses to about 46.1 µM), inactives show top-dose growth rescue (activation), hits mostly activators; 320,000 tested, 0.23% active; AID 485298; also: potency is read from the fitted curve at half-maximal effect; % of control where 0% means no effect; nearly all actives have a fitted effect of over 45% in size
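S. cerevisiae fusion-defective temperature-sensitive mutants (e.g. fzo1-1, mgm1-5) grown 48 h at 37C in YPEG (ethanol/glycerol non-fermentable) medium with 23 nl compound per well; growth rescue read as CellTiterGlo luminescence.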
A549 tox = A549 cytotoxicity, counter-screen for Nrf2 inhibitors; 390,000 tested, 0.16% active; Potency, µM (highest dose often 46 µM), without a hit: at the highest dose activity change, negative = cytotoxicity, usual class: inhibitors; A549 ARE-Fluc cells, CellTiter-Fluor viability, 18-24 h; AID 504648; also: potency is read from the fitted curve at half-maximal effect; % is scaled to controls: 0 for no effect and ±100 for the full control effect
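Cytotoxicity counterscreen: CellTiter-Fluor fluorescence was measured in A549 ARE_Fluc cells after 18-24 h of compound exposure in a concentration series. The subsequent BugLite luminescent read reports ARE-luciferase activity.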
miR-21 FLuc = miR-21 reporter, rising signal; HeLa miR-21 FLuc reporter, luciferase, 48 h; Potency, µM (titrated, usually from 38.3 µM), for the others: at the top dose reporter change, positive = more light; 340,000 tested, under 10 active; AID 2288; active = well fitted rising curve with a large enough effect; inconclusive = small, poorly fitted or top-dose-only effect; inactive = no such curve, though single readings can be large or run the other way;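 also: % of control where 0% means no effect; miR-21 action dims this reporter so a rising signal means less miR-21 action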
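HeLa cells endogenously expressing miR-21, stably carrying CMV-driven firefly luciferase with a downstream miR-21 binding site, 2000 cells/well. Titrations up to approximately 40 uM, 48 hours; luciferase luminescence read.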
Nrf2 inh = Nrf2 pathway inhibition; A549 ARE-Fluc reporter, luciferase luminescence, 18-24 h; Potency, µM (top dose mostly 46 µM), for inactives: at the top dose activity change, negative = inhibition, actives largely listed as inhibitors; 360,000 tested, 2.1% active; AID 504444; also: potency is read from the fitted curve at half-maximal effect; % is scaled to controls: 0 for no effect and ±100 for the full control effect; nearly all actives have a fitted effect of over 60% in size
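A549 ARE_Fluc cells, 5000/well, 5% FBS OPTI-MEM; compounds in dose-response, 18-24 h at 37 °C/5% CO2; CellTiter-Fluor viability read (Ex 405/Em 525), then BugLite luciferase luminescence = Nrf2 activity.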
Nrf2 ARE act = activators of Nrf2 (ARE) signaling. AREc32 ARE-luciferase reporter (MCF7-derived line), luminescence, 24 h. 410,000 tested, 0.31% active. Potency, µM (highest dose often 46.1 µM), for the others: at the highest dose activation, most hits filed as activators; also: potency is read from the fitted curve at half-maximal effect; % of control where 0% means no effect; nearly all actives have a fitted effect of over 65% in size
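Luciferase luminescence (Steady-Glo, 30 min at room temperature) served as the read-out of ARE activation in AREc32 cells treated with compounds for 24 hr at 37 deg C.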
* hit, by the source's call; ! = not active in a repeat; [ ] = another dose, or the depositor's remark. Unless noted, calls follow the shape of the dose curve; as a rule, active = well fitted curve in the direction sought with a large enough effect; inconclusive = small, poorly fitted or top-dose-only effect, or another doubt; inactive = no such curve, though single readings can be large; an effect the other way counts as inactive or inconclusive.

Results for Cc1ccc(S(=O)(=O)N2CC=C(c3c(C)n(CC(=O)N4CCCC4)c4ccccc34)CC2)cc1C ?
A549 tox: -7%; miR-21 FLuc: 21%; Nrf2 inh: -11%; Nrf2 ARE act: 2%

Results for Cc1ccc(Cl)c(Nc2ccccc2C(=O)O)c1Cl ?
Mito fusion yeast: 5.2µM*!; A549 tox: -6%; miR-21 FLuc: -7%; Nrf2 inh: -10%; Nrf2 ARE act: 0%

How did CCNc1cccc(S(=O)(=O)N2CCCN(S(=O)(=O)c3ccc4c(c3)OCCO4)CC2)c1 do in these assays?
A549 tox: -2%; Nrf2 inh: inconclusive

What do the screens show for `c1ccc(CN2CCC3(CCCc4ccccc43)CC2)cc1`?
Mito fusion yeast: 23µM*!; A549 tox: -10%; Nrf2 inh: 0%; Nrf2 ARE act: 0%

Results for CCc1ccc(-c2nc3c(=O)n(C)c(=O)nc-3n(CC)n2)cc1 ?
A549 tox: inconclusive; Nrf2 inh: 15µM*

How did CCCc1nc2c(=O)n(C)c(=O)nc-2n(C)n1 do in these assays?
Mito fusion yeast: 6%; A549 tox: 6.5µM*; miR-21 FLuc: inconclusive; Nrf2 inh: 23µM*; Nrf2 ARE act: -3%

What do the screens show for `Cc1ccc(-n2c3nc(=O)n(C)c(=O)c-3cc3ccccc32)cc1`?
Mito fusion yeast: 3%; A549 tox: 1%; miR-21 FLuc: 3%; Nrf2 inh: -8%; Nrf2 ARE act: -1%

Results for COc1ccc(-c2nc(-c3ccccn3)ncc2S(C)(=O)=O)cc1 ?
Mito fusion yeast: 0%; A549 tox: 0%; miR-21 FLuc: -8%; Nrf2 inh: -3%; Nrf2 ARE act: 0%

Results for Cc1ccccc1-c1nc2c(=O)n(C)c(=O)nc-2n(C)n1 ?
A549 tox: 4.1µM*; Nrf2 inh: 2.3µM*

What do the screens show for `Cn1nc(-c2ccccn2)nc2c(=O)n(C)c(=O)nc1-2`?
Mito fusion yeast: -20%; A549 tox: 3.3µM*; miR-21 FLuc: inconclusive; Nrf2 inh: 3.7µM*; Nrf2 ARE act: -3%

What do the screens show for `COc1ccc(-n2nc3cc(C)c(NC(=O)COc4cccc(C)c4)cc3n2)cc1`?
A549 tox: -4%; miR-21 FLuc: -3%; Nrf2 inh: 4%; Nrf2 ARE act: -1%

What do the screens show for `CCCCCN(C(=O)CCC(=O)OCc1ccc(C(C)(C)C)cc1)c1c(N)n(CCCC)c(=O)[nH]c1=O`?
Mito fusion yeast: -2%; A549 tox: -12%; miR-21 FLuc: 0%; Nrf2 inh: 13µM*; Nrf2 ARE act: 3%

What do the screens show for `CNC(=O)/C(C#N)=C/c1c(N(Cc2ccccc2)Cc2ccccc2)nc2c(C)cccn2c1=O`?
Mito fusion yeast: inconclusive; A549 tox: inconclusive; miR-21 FLuc: -11%; Nrf2 inh: 26µM*; Nrf2 ARE act: 4%

What do the screens show for `CCNC(=O)/C(C#N)=C/c1c(N(Cc2ccccc2)Cc2ccccc2)nc2ccccn2c1=O`?
Mito fusion yeast: inconclusive; A549 tox: inconclusive; miR-21 FLuc: 17%; Nrf2 inh: inconclusive; Nrf2 ARE act: 4%

Results for Cc1ccccc1C(=O)Nc1nc(-c2ccc(Br)cc2)ns1 ?
A549 tox: -15%; miR-21 FLuc: 11%; Nrf2 inh: inconclusive; Nrf2 ARE act: 0%

How did Brc1cc2c(cc1/C=N/Nc1nc(N3CCCCC3)nc(N3CCCCC3)n1)OCO2 do in these assays?
Mito fusion yeast: -1%; miR-21 FLuc: 0%

Results for COc1nc(N/N=C/c2cc3c(cc2Br)OCO3)nc(N2CCOCC2)n1 ?
Mito fusion yeast: 0%; A549 tox: 13%; miR-21 FLuc: -12%; Nrf2 inh: 16µM*; Nrf2 ARE act: 2%

Results for O=C(Nc1ccccc1)c1ccc(-c2ccc(Br)cc2)o1 ?
Mito fusion yeast: 16µM*; miR-21 FLuc: -48%; Nrf2 inh: inconclusive; Nrf2 ARE act: 7%

Results for O=C(/C=C/c1ccco1)NCC(=O)N/N=C/c1ccccc1[N+](=O)[O-] ?
Mito fusion yeast: -1%[9.22 µM]; A549 tox: inconclusive; miR-21 FLuc: 1%; Nrf2 inh: 1%; Nrf2 ARE act: 11µM*

Results for O=C1c2cccc(NCCCNCCO)c2C(=O)c2cccc(NCCCNCCO)c21 ?
A549 tox: 18µM*; Nrf2 inh: inconclusive; Nrf2 ARE act: -1%

How did N#C/C(=N\Nc1cccc([N+](=O)[O-])c1)C(=O)c1ccc(Br)cc1 do in these assays?
Mito fusion yeast: -4%; A549 tox: -22%; miR-21 FLuc: 20%; Nrf2 inh: 9.2µM*; Nrf2 ARE act: 14%

Results for N#C/C(=N\Nc1ccc([N+](=O)[O-])cc1)C(N)=S ?
Mito fusion yeast: inconclusive; A549 tox: 18µM*; miR-21 FLuc: 10%; Nrf2 inh: inconclusive; Nrf2 ARE act: 2%

How did Cc1cc(C)nc(OC(C(=O)O)C(OCCc2ccccc2)(c2ccccc2)c2ccccc2)n1 (stereo unspecified) do in these assays?
Mito fusion yeast: -1%; A549 tox: -14%; miR-21 FLuc: 16%; Nrf2 inh: 13µM*; Nrf2 ARE act: 0%

What do the screens show for `O=C(NC1CCCCC1)C(c1cccnc1)N(C(=O)CCl)c1cccc(Cl)c1` (stereo unspecified)?
Mito fusion yeast: 0%; A549 tox: -19%; miR-21 FLuc: 25%; Nrf2 inh: inconclusive; Nrf2 ARE act: 13µM*

What do the screens show for `CN(C)c1ccc(C(=O)Nc2sc(Nc3ccccc3)nc2C(N)=O)cc1`?
A549 tox: inconclusive; miR-21 FLuc: -37%; Nrf2 ARE act: 15%

Results for O=C(O)c1ccc(COc2ccccc2/C=C2\NC(=O)N(Cc3ccccc3)C2=O)cc1 ?
Mito fusion yeast: -4%; A549 tox: -4%; miR-21 FLuc: -16%; Nrf2 inh: -18%; Nrf2 ARE act: 0%

How did O=C(O)c1ccc(COc2ccc3ccccc3c2/C=C2/NC(=O)N(Cc3ccc(F)cc3)C2=O)cc1 do in these assays?
Mito fusion yeast: -6%; A549 tox: -27%; miR-21 FLuc: 1%; Nrf2 inh: 21µM*; Nrf2 ARE act: 5%

How did Cc1cc(C)cc(Oc2nc3c(C)cccn3c(=O)c2/C=C(\C#N)c2nc3ccccc3s2)c1 do in these assays?
A549 tox: inconclusive; miR-21 FLuc: 1%; Nrf2 inh: inconclusive; Nrf2 ARE act: 0%

What do the screens show for `CCN1/C(=C/C(C)=C/c2sc3ccccc3[n+]2CC)Sc2ccccc21`?
Mito fusion yeast: 2%; A549 tox: 21µM*; miR-21 FLuc: inconclusive; Nrf2 inh: 8.2µM*; Nrf2 ARE act: -2%

How did Cc1ccc(NC(=O)CSc2cn(CC(=O)N3CCCC3)c3ccccc23)cc1Cl do in these assays?
A549 tox: -1%; miR-21 FLuc: inconclusive; Nrf2 inh: inconclusive; Nrf2 ARE act: 0%

Structural class, those above with a Cl atom (3)
Results for Cc1ccc(Cl)c(Nc2ccccc2C(=O)O)c1Cl ?
Mito fusion yeast: 5.2µM*!; A549 tox: -6%; miR-21 FLuc: -7%; Nrf2 inh: -10%; Nrf2 ARE act: 0%

What do the screens show for `O=C(NC1CCCCC1)C(c1cccnc1)N(C(=O)CCl)c1cccc(Cl)c1` (stereo unspecified)?
Mito fusion yeast: 0%; A549 tox: -19%; miR-21 FLuc: 25%; Nrf2 inh: inconclusive; Nrf2 ARE act: 13µM*

How did Cc1ccc(NC(=O)CSc2cn(CC(=O)N3CCCC3)c3ccccc23)cc1Cl do in these assays?
A549 tox: -1%; miR-21 FLuc: inconclusive; Nrf2 inh: inconclusive; Nrf2 ARE act: 0%
